Source: US9320878B2, “Phase-transition polymeric microneedles” (priority 2008, dated 2016)

Conditions: for time at which insulin release stopped / cumulative insulin release, share of total insulin loading released: PVA/dextran 80/20 patch, PBS pH 7.4, 37° C.; for cumulative insulin release, share of total insulin loading released: release stopped at 40 hours

In the case of insulin, the “rate and extent of insulin release against dextran content” value (4 freeze-thaw cycles, PVA/dextran weight ratios 100/0, 90/10 and 80/20) is reported as “increased as the dextran content was increased”, the “time at which insulin release stopped” value (2 freeze-thaw cycles) is reported as 40 h and the “cumulative insulin release, share of total insulin loading released” value (2 freeze-thaw cycles) is reported as 70%. The “time at which insulin release stopped” value (4 freeze-thaw cycles) was 40 h, the “cumulative insulin release, share of total insulin loading released” value (4 freeze-thaw cycles) was 60% and the “insulin release profile (cumulative and hourly)” value (three-layer patch (drug-loaded+drug-free+drug-loaded) by programmed casting, PVA/dextran 85/15, 1% insulin by weight in drug-loaded layer) was “two insulin release peaks with five hours interval”.

Read-outs that look alike come from different tables or passages of the source.
